Measurements reported in patent publication US6465614B1, “High-affinity response-selective C-terminal analogs of C5a anaphylatoxin” (priority 1994, dated 2002).
Where two headings read alike, the source gives them in different places.

Experiments:
Format in all cases: cell-based
guinea-pig platelets = assay: Guinea-pig platelet aggregation assay; settings: for Platelet Aggreg (threshold concentration producing visible platelet aggregation): guinea-pig platelets, threshold response
Description: This assay was performed on platelets obtained from the arterial blood of anesthetized male Hartley guinea pigs according to previously published methods (Ember et al., 1992, supra). Briefly, platelet-rich plasma was prepared and diluted to 3×10^8 platelets/ml in 0.39% sodium citrate solution. Peptide samples were diluted in a stepwise fashion in 1.5-fold dilutions and placed in 96-well microplates. A […] peptide sample, […] of platelet-rich plasma, and one 3 mm glass bead were placed in each well. The plates were shaken horizontally at 100 rpm for 5 min at 37° C. Platelet aggregation was evaluated visually in an inverted microscope at 40× magnification. The greatest dilution of peptide producing visible aggregation was scored as the threshold concentration for activity. Natural C5a and C3a were included as internal standards. At least three independent duplicate determinations were conducted for every peptide.

human neutrophils (PMN) [1] = biological target: T1, human neutrophils (PMN) (Homo sapiens, UniProt P21730)
T1 sequence (P21730 1-350): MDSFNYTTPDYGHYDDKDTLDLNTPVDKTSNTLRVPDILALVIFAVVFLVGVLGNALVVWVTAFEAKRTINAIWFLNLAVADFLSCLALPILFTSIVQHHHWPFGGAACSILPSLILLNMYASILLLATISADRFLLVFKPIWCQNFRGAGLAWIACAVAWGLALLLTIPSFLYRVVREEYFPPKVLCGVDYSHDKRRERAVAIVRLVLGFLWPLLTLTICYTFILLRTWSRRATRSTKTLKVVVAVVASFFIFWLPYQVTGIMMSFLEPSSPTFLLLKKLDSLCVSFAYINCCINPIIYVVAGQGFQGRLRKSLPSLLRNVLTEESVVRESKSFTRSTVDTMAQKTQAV
Description: Neutrophil polarization assays were conducted as described by Ember et al., 1992, supra. Human neutrophils (PMN) were prepared according to the procedure described by Dahinden et al. (1979), J. Immunol., 130: 857-862. The assay for measuring the effect of C5a analogs on PMN polarization was described by Haston & Shields (1985), J. Immunol. Methods, 81: 229-237. Briefly, PMN (1×10^6 cells/ml) were suspended in 10 mM 3- (N-morpholino) propane sulfonic acid (Sigma Chemical Co.) containing EBSS. […] After 10 minutes of incubation at room temperature, the cells were washed twice and stored until microscopic examination. Cells deviating from the typical spherical shape were visually scored as polarized. Results are expressed as percent of polarized cells per total cells counted (300 cells counted/sample).

human fetal artery = biological target: T2, human fetal artery (Homo sapiens, UniProt P21730); assay: Smooth muscle contraction of human fetal artery (spasmogenic assay)
T2 sequence (P21730 1-350): T1 sequence (P21730 1-350)
Description: Tissue strips were suspended in 2 ml organ baths, containing physiological salt solution (Krebs-Ringers solution: 118 mM NaCl, 4.7 mM KCl, 2.5 mM CaCl2, 25 mM NaHCO3, 1.2 mM KH2PO4, 1.2 mM MgSO4, 10 mM Glucose) maintained at 37° C., pH 7.4 and continuously aerated with a […] mixture. Each tissue preparation was equilibrated for 1 hr prior to testing with peptides. All drugs were kept on ice during the procedure and isometric tensions were measured using strain-gauge transducers (Grass FT-03) with a computerized chart recording system (MacLab/8). After the contraction to each peptide reached a plateau, histamine (10 μM) was added to obtain the maximum tissue response. Because tachyphylaxis occurs rapidly to single doses of C5a or peptides, cumulative dose-response curves could not be obtained. […] After exposing each strip to a single concentration of the peptide followed by supramaximal histamine, the response was expressed as a percentage of the maximal contraction to histamine. Full dose-response curves for C5a (human recombinant C5a; Sigma) or individual peptides were performed in each experiment for each tissue and the EC50 values (i.e., concentration of peptide producing 50t of the maximal response to each peptide) obtained by probit analysis. pD2 transforms [−log EC50 (M)] were calculated for each dose-response curve, and means ±SE obtained for each peptide. […]

human neutrophils (PMN) [2] = biological target: T1, human neutrophils (PMN); remark: listed apart in the source
Description: The release of glucuronidase from human neutrophils was determined as described by Schroder et al. (1987), J. Immunol., 139: 3474-3483. Briefly, human neutrophils were pretreated with cytochalasin B (5 μg/ml, 10 min, 37° C.). The cells (10^6) were incubated in the presence of stimulants for 60 minutes at 37° C. in a final volume of 200 μl and then centrifuged. The supernatant was collected and 50 μl were incubated with 50 μl of 0.01 M P-nitrophenyl-β-D-glucuronide (in 0.1 M sodium acetate at pH 4 for 18 h) as triplicate determinations in 96-well microtiter plates (Corning). The reaction was stopped by addition of 100 μl of 0.4 M gly buffer at pH 10. The reaction developed color that was read at 405 nm in a Titertec Multiscan (MCC/340) ELISA reader. The β-glucuronidase released was expressed as the percentage of total enzyme in the cell that could be released by addition of 0.2% Triton X-100 (Pierce).

Row | Structure (SMILES) | Platelet Aggreg (threshold concentration producing visible platelet aggregation) (guinea-pig platelets) [µM] | platelet aggregation potency compared with peptide 10 (guinea-pig platelets; in words) | EC50 (human neutrophils (PMN) [1]) [µM] | spasmogenic activity compared with peptide 10 (human fetal artery; in words) | potency relative to natural C5a for elicitation of a spasmogenic response (Class 1) (human fetal artery; smooth muscle contraction assay, percent of natural/full C5a potency) | EC50 (human neutrophils (PMN) [2]) [µM]
1 | CC(C)C[C@H](NC(=O)[C@@H]1CCCN1C(=O)[C@H](C)NC(=O)[C@H](CC(=O)O)NC(=O)[C@H](CCCCN)NC(=O)[C@H](Cc1ccccc1)NC(=O)[C@H](CO)NC(=O)[C@@H](N)Cc1ccc(O)cc1)C(=O)N[C@H](C)C(=O)N[C@@H](CCCNC(=N)N)C(=O)O [peptide 19] | 0.54 | about twice as potent | 2.3 | equipotent | 4-5% | 114
2 | CSCC[C@H](NC(=O)[C@H](CC(=O)O)NC(=O)[C@H](CCCCN)NC(=O)[C@H](Cc1ccccc1)NC(=O)[C@H](CO)NC(=O)[C@@H](N)Cc1ccc(O)cc1)C(=O)N1CCC[C@H]1C(=O)N[C@@H](CC(C)C)C(=O)N1CCC[C@@H]1C(=O)N[C@@H](CCCNC(=N)N)C(=O)O [peptide 14] | 2.7 | – | 2.5 | – | – | 46.5
3 | CSCC[C@H](NC(=O)[C@H](CC(=O)O)NC(=O)[C@H](CCCCN)NC(=O)[C@H](Cc1ccccc1)NC(=O)[C@H](CO)NC(=O)[C@@H](N)Cc1ccc(O)cc1)C(=O)N1CCC[C@H]1C(=O)N[C@@H](CC(C)C)C(=O)N[C@H](Cc1ccccc1)C(=O)N[C@@H](CCCNC(=N)N)C(=O)O [peptide 13] | 2.3 | – | 4 | – | – | 114
4 | CSCC[C@H](NC(=O)[C@H](CC(=O)O)NC(=O)[C@H](CCCCN)NC(=O)[C@H](Cc1ccccc1)NC(=O)[C@H](CO)NC(=O)[C@@H](N)Cc1ccc(O)cc1)C(=O)N1CCC[C@H]1C(=O)N[C@@H](C)C(=O)N[C@H](C)C(=O)N[C@@H](CCCNC(=N)N)C(=O)O [peptide 12] | 90 | – | 5.6 | – | – | –
